Chains of the proteins cited; added tags and fusions are not shown.
UniProt P25103, whole entry: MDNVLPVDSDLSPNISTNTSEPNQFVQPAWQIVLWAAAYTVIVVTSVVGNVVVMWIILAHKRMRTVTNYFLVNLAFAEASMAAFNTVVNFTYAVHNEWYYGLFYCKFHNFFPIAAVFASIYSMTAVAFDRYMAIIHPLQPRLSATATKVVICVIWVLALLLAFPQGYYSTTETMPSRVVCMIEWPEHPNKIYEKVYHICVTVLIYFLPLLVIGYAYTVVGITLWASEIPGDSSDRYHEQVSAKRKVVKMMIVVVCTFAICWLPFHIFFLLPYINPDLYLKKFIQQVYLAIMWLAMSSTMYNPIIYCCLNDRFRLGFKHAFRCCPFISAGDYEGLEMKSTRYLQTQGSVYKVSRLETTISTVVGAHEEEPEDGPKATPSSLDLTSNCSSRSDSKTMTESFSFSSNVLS

According to ChEMBL document CHEMBL1128202, “Identification of a series of 3-(benzyloxy)-1-azabicyclo[2.2.2]octane human NK1 antagonists” (J Med Chem, 1995):

What follows are compounds tested against Substance-P receptor (Homo sapiens, UniProt P25103) (assay: Inhibition of binding of [125I]SP to the CHO cell line expressing human Tachykinin receptor 1).
Type: cell-based
In the case of `Cc1cc(C)cc(COC2/C(=C/c3ccccc3)N3CCC2CC3)c1` (stereo not drawn), the IC50 is reported as 2930 nM.
Compound `COc1ccc(COC2C3CCN(CC3)C2C(c2ccccc2)c2ccccc2)cc1` (stereo not drawn) has an IC50 of 1110 nM.
Compound `Cc1cc(C)cc(COC2C(=Cc3ccccc3)N3CCC2CC3)c1` (stereo not drawn) has an IC50 of 120 nM.
